## Yeast mating assay 2: variants of the scFv Ab-91

The target is the same throughout: PDVDLGDISGINAS, from the HR2 region of SARS-CoV-2 spike.

Each scFv is VL, the linker GGGGSGGGGSGGGGS, VH, as in the parent Ab-91, and differs from it in the CDRs of the heavy chain only.
VL: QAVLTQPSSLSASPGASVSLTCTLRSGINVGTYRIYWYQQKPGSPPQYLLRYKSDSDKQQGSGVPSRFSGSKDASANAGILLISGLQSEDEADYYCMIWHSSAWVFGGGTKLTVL
VH: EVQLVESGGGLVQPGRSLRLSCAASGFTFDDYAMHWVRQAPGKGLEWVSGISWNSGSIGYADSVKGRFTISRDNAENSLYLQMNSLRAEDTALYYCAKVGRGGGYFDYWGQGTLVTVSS

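Variants in AAYL51 differ from the parent at up to three CDR positions; double and triple changes were sampled at random. The assay is AlphaSeq: two haploid yeast populations carry antibody and antigen on their surface. Binding brings cells together so that they mate, and sequencing counts the barcode pairs among the diploids. Scores were corrected for input abundance and mapped to Kd with protein pairs of known affinity run in the same pool. The assay was run in three technical replicates.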

Sequences are complete VH domains. All variants listed here change D62 of the VH, counted from its first residue. The Kd shown is the geometric mean over detected replicates; a lower Kd is a better binder. A pair that was not seen in any replicate is written "nd"; this usually means weak binding, but a binder can also be missed. For reference, the parent read 72 nM as the reference entry and 7.5 nM as a member of this library. Three control strains display no target. For library AAYL51, 21% of the pairings with them gave a signal, with a median of 34 µM and one signal in twenty below 1.8 µM, so weak values seen in few replicates may be background.

With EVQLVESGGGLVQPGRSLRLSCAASGFTFDDYAMHWVRQAPGKGLEWVSGISWNSGSIGYACSVKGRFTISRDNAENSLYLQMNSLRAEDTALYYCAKVYRGGGYFDYWGQGTLVTVSS the result was 22 µM (2 of 3 replicates). The variant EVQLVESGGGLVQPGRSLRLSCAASKFTFDDYAMHWVRQAPGKGLEWVSGISWNSGSCGYAPSVKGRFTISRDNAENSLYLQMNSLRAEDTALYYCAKVGRGGGYFDYWGQGTLVTVSS showed 640 nM (3 of 3 replicates). The variant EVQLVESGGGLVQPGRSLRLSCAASGFTFDDYAMHWVRQAPGKGLEWVSGISWGSGSIGYAMSVKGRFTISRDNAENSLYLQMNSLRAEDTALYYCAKVGRGGGYFDSWGQGTLVTVSS showed nd (0 of 3 replicates). With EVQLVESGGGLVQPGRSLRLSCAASGFTFDDYAMHWVRQAPGKGLEWVSGISWNSGSIGYALSVKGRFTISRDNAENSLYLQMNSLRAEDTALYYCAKVGRSGGYFDYWGQGTLVTVSS the result was 28 µM (1 of 3 replicates). The variant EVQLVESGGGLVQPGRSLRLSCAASGFTFDDIAMHWVRQAPGKGLEWVSGISWNSGSIGYAFSVKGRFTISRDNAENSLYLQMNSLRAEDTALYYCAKVGRFGGYFDYWGQGTLVTVSS gave 330 µM (2 of 3 replicates).

The variant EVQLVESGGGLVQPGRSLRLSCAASGFTWDDYAMHWVRQAPGKGLEWVSKISWNSGSIGYAMSVKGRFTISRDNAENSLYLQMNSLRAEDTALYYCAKVGRGGGYFDYWGQGTLVTVSS gave 1.1 mM (1 of 3 replicates). For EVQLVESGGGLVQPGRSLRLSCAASMFTFDDYAMHWVRQAPGKGLEWVSGISWNSGSIGYAPSVKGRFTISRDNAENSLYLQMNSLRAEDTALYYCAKVGRGGGYFDDWGQGTLVTVSS, the assay gave 2.1 µM (3 of 3 replicates). With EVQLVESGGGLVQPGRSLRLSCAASGFTFDDYAMHWVRQAPGKGLEWVSGISMNSGSIYYAVSVKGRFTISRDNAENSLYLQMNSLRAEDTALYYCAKVGRGGGYFDYWGQGTLVTVSS the result was 280 µM (2 of 3 replicates). For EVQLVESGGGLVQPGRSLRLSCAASGFDFDDYAMHWVRQAPGKGLEWVSGISWNSGSIGEAMSVKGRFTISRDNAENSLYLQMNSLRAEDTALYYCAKVGRGGGYFDYWGQGTLVTVSS, the assay gave nd (0 of 3 replicates). The variant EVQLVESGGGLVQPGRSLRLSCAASGFTFYDYAMPWVRQAPGKGLEWVSGISWNSGSIGYAWSVKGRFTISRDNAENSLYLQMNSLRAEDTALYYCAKVGRGGGYFDYWGQGTLVTVSS showed nd (0 of 3 replicates).

With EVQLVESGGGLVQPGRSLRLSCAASGFTFDDYAMHWVRQAPGKGLEWVSGISWNSGSIGYAKSVKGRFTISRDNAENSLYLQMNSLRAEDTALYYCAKVGRGGGYPMYWGQGTLVTVSS the result was 3.9 µM (3 of 3 replicates). For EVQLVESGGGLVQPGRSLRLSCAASGFTFDDYAMHWVRQAPGKGLEWVSGISWNSGSIGYAISVKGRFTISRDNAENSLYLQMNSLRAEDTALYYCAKVGRAGGYFDYWGQGTLVTVSS, the assay gave nd (0 of 3 replicates). The variant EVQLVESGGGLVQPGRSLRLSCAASGFTFDDYAMLWVRQAPGKGLEWVSGISWNSISIGYAHSVKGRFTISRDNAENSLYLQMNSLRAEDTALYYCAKVGRGGGYFDYWGQGTLVTVSS showed nd (0 of 3 replicates). For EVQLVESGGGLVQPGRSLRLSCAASGFTFDDYAYHWVRQAPGKGLEWVSGISWNSGSIGYAKSVKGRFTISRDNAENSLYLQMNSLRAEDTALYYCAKVGRGGGQFDYWGQGTLVTVSS, the assay gave nd (0 of 3 replicates). With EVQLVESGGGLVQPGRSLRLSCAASGFHFDDYAFHWVRQAPGKGLEWVSGISWNSGSIGYAISVKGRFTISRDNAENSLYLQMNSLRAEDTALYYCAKVGRGGGYFDYWGQGTLVTVSS the result was 420 µM (2 of 3 replicates).

The variant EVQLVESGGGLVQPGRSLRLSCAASGFTFDDYAMHWVRQAPGKGLEWVSGISWNHGHIGYACSVKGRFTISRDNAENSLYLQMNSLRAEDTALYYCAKVGRGGGYFDYWGQGTLVTVSS showed nd (0 of 3 replicates). The variant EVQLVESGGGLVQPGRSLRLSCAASGFTFDDYAMHWVRQAPGKGLEWVSGISRNSGSIGYARSVKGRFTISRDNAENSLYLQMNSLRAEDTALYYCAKVGRGGLYFDYWGQGTLVTVSS showed 3.5 µM (1 of 3 replicates). The variant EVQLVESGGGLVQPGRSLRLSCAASGFTFDDYAMHWVRQAPGKGLEWVSGISWNSGSIGYAQSVKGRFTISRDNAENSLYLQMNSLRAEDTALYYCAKVGRGDGYFDYWGQGTLVTVSS showed 8.4 nM (3 of 3 replicates). For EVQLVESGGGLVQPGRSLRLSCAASGFTFDDYDMHWVRQAPGKGLEWVSGISWNSGSIGYASSVKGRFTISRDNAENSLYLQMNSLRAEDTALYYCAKVGRVGGYFDYWGQGTLVTVSS, the assay gave 13 µM (1 of 3 replicates). With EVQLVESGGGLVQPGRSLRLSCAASGFTRDDYAMHWVRQAPGKGLEWVSGISWNSGSIGYANSVKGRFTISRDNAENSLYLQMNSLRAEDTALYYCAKVGDGGGYFDYWGQGTLVTVSS the result was 50 µM (3 of 3 replicates).

For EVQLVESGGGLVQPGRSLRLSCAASGFTFDFYAMHWVRQAPGKGLEWVSGISWNSGSIGYAHIVKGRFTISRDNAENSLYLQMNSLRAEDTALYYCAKVGRGGGYFDYWGQGTLVTVSS, the assay gave 620 nM (1 of 3 replicates). The variant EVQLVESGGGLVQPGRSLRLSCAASGFTFDDYAMGWVRQAPGKGLEWVSGYSWNSGSIGYASSVKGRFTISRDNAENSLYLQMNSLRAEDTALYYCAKVGRGGGYFDYWGQGTLVTVSS showed 80 µM (1 of 3 replicates). The variant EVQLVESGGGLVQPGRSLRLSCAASGFTFDDYAMHWVRQAPGKGLEWVSGISWNSGSIGYAWSQKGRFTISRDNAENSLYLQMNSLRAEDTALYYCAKVGRGGGYFDYWGQGTLVTVSS showed nd (0 of 3 replicates). For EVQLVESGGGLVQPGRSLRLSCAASGFTFDTYAMHWVRQAPGKGLEWVSGISWNSGSIGYAKSVKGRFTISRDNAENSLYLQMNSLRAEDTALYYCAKMGRGGGYFDYWGQGTLVTVSS, the assay gave 130 µM (2 of 3 replicates).

Picked from the list: the 3 lowest averages where every replicate gave a value.

VH,Kd (apparent),replicates with signal
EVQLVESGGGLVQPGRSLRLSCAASGFTFDDYAMHWVRQAPGKGLEWVSGISWNSGSIGYAQSVKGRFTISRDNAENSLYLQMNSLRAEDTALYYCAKVGRGDGYFDYWGQGTLVTVSS,8.4 nM,3 of 3
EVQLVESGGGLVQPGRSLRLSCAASKFTFDDYAMHWVRQAPGKGLEWVSGISWNSGSCGYAPSVKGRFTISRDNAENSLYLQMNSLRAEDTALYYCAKVGRGGGYFDYWGQGTLVTVSS,640 nM,3 of 3
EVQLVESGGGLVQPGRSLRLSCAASMFTFDDYAMHWVRQAPGKGLEWVSGISWNSGSIGYAPSVKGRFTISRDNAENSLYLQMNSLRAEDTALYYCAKVGRGGGYFDDWGQGTLVTVSS,2.1 µM,3 of 3

Reference: Engelhart et al. 2022, doi:10.1038/s41597-022-01779-4. File: FLAb, binding data.